Measurements from BindingDB's records for doi:10.1038/sj.bjp.0703341 (Friedrich-Schiller-University Jena, 2000).
pKi: −log10 of the molar value.

Protein sequences, listed by entry. Tags and fused reporters are not part of them.
UniProt P30994, whole entry: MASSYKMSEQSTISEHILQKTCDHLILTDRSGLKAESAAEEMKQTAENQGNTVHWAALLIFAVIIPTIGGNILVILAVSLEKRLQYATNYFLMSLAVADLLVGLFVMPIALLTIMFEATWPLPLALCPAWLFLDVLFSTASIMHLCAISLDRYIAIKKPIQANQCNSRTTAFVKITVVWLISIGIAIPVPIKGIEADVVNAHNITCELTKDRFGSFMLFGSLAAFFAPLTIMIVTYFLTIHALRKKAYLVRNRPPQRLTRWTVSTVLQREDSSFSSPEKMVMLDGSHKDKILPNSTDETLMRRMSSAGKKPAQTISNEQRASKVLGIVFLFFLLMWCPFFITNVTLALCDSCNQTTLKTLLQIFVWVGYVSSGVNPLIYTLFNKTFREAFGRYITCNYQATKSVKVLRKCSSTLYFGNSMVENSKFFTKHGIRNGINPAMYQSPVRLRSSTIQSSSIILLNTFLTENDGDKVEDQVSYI

Biological target: 5-hydroxytryptamine receptor 2B (Rattus norvegicus, UniProt P30994)

Compound: CN1C[C@@H](NS(=O)(=O)N(C)C)C[C@@H]2c3cccc4c3c(cn4C)C[C@H]21 [MESULERGINE]
- pKi: 7.40
